Experimental data: ChEMBL document CHEMBL6177964 (Eur J Med Chem, 2025)

By UniProt entry, the sequences of proteins in these tests, tags left out.
UniProt P12821, whole entry: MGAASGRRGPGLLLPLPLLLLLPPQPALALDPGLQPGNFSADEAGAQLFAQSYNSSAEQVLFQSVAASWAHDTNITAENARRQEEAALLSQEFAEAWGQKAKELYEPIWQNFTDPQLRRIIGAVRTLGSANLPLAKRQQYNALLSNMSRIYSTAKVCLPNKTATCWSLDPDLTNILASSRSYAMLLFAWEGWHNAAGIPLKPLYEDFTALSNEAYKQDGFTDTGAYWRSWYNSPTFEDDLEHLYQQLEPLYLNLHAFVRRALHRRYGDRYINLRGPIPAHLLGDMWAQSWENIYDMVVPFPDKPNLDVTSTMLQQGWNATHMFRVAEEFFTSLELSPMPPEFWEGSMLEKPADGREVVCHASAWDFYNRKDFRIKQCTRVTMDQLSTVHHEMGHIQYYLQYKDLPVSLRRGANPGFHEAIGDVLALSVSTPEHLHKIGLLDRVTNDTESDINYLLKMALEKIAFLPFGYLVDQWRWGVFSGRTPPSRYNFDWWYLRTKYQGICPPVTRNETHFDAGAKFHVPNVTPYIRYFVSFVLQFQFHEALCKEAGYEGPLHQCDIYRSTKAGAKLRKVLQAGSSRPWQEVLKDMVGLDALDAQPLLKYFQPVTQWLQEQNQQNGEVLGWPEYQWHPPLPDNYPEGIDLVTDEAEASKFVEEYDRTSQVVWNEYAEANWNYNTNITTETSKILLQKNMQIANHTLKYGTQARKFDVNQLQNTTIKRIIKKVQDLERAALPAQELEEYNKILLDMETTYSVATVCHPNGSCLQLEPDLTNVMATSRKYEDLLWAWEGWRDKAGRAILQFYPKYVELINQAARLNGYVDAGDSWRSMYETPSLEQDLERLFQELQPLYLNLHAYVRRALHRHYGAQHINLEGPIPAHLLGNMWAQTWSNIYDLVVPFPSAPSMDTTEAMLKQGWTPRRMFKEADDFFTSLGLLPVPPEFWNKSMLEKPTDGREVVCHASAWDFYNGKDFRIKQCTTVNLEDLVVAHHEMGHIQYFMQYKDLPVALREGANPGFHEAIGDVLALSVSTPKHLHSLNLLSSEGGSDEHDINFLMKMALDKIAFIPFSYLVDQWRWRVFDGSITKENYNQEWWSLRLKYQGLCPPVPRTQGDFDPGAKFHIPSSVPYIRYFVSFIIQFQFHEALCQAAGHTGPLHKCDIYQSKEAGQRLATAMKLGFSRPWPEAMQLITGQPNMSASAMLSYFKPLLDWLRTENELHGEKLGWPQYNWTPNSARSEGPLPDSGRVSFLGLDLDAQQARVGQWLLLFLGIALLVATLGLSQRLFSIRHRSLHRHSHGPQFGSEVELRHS

Target: Angiotensin-converting enzyme (Homo sapiens, UniProt P12821)
Assay: Inhibition of ACE (unknown origin)

Compound | IC50
CC[C@H](C)[C@H](N)C(=O)N1CCC[C@H]1C(=O)N1CCC[C@H]1C(=O)O | 5 µM
CC(C)[C@H](N)C(=O)N1CCC[C@H]1C(=O)N1CCC[C@H]1C(=O)O | 8 µM
